## Apparent affinities of Ab-14 variants for a coronavirus HR2 peptide

Antigen: PDVDLGDISGINAS, a 14-residue peptide of the SARS-CoV-2 spike HR2 region.

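The starting antibody came from a phage panning campaign against this peptide. The variants were designed computationally from a first round of random CDR variants and then made and measured. Several design methods are mixed in this list. The scFvs were displayed on barcoded MATa yeast, the peptide on MATalpha yeast. Binding brings cells together so that they mate, and sequencing counts the barcode pairs among the diploids. Scores were corrected for input abundance and mapped to Kd with protein pairs of known affinity run in the same pool. There are six technical replicates.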

Ab-14 is the parent antibody, in scFv form: VH, then a (GGGGS)3 linker, then VL. The light chain is unchanged in all variants.
VH: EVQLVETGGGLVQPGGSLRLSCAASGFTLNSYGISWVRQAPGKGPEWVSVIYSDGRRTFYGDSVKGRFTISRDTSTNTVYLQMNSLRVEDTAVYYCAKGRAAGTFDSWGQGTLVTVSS
VL: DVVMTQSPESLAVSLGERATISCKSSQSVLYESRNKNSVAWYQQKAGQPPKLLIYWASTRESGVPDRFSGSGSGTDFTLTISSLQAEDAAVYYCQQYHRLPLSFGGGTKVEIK

The parent's heavy chain CDRs are GFTLNSYGIS, VIYSDGRRTFYGDSVK, GRAAGTFDS; each variant's own CDRs replace them letter for letter. Variants here have more than six changes. Values are apparent Kd, the geometric mean of the replicates that gave a signal; lower means stronger binding. A pair that was not seen in any replicate is written "nd"; this usually means weak binding, but a binder can also be missed.

For GFDIDEYGIS | VIYADGMRTFYTDSVK | GEEAGTFDA, the assay gave 230 pM (6 of 6 replicates).
For GFDLNEYGIS | VIYADGKRTAYVDSVK | GEVAGTFDQ, the assay gave 220 pM (6 of 6 replicates).
For GFQLDEYGIS | VIYADGRRTFYSDSVK | GEVAGTFDS, the assay gave 650 pM (6 of 6 replicates).
For GFDLEEYGIS | VIYADGMRTQYINAVK | GIAGDIMDL, the assay gave 56 nM (3 of 6 replicates).
For AFNLEDYGIS | VIYADGVRASYVESVK | GGLAGTFVI, the assay gave nd (0 of 6 replicates).
For GFDLNEYGIS | VIYADGRRTFYADSVK | GEAAGTFFI, the assay gave 7.4 nM (1 of 6 replicates).
For GFNLDEYGIS | VIYADGQRKAYAQHVK | GGGGTDRGI, the assay gave nd (0 of 6 replicates).
For GFDLDEYGIS | VIYADGMRTAYADSVK | GNTAGTFDL, the assay gave 360 pM (6 of 6 replicates).
For GFDLKEYGIS | VIYADGRRTAYDNDVK | GQVLGIFLD, the assay gave nd (0 of 6 replicates).
For GSDLNEYGIS | VIYADGHRVSYAENVK | GINMGGIAI, the assay gave nd (0 of 6 replicates).
For GYSLDDYGIS | VIYADGKRKSYAEDVK | GNVGGSFMD, the assay gave 4.0 µM (1 of 6 replicates).
For GFDLNEYGIS | VIYADGRRTFYADNVK | GEVAGTFNV, the assay gave 260 pM (6 of 6 replicates).
For GFDLEEYGIS | VIYADGQRTAYADSVK | GNVAGTFDI, the assay gave 270 pM (6 of 6 replicates).
For GFDLNEYGIS | VIYADGLRTSYDDSVK | GQNAGTFDQ, the assay gave 1.8 nM (6 of 6 replicates).
For GFDLNEYGIS | VIYADGRRTFYADSVK | GNTAGTFLF, the assay gave 2.3 nM (6 of 6 replicates).
For GFDLNEYGIS | VIYADGMRTAYSDKVK | GNNAGTFDV, the assay gave 540 pM (6 of 6 replicates).
For GGSLDQYGIS | VIYADGVRTSYTNSVK | GVHAGTFMQ, the assay gave 16 nM (5 of 6 replicates).
For GFDLNEYGIS | VIYADGRRTAYADSVK | GEYAGTFDI, the assay gave 810 pM (4 of 6 replicates).
For GDVLDEYGIS | VIYADGRRTAYTQDVK | GKKAGSLSV, the assay gave nd (0 of 6 replicates).
For GFNLNEYGIS | VIYADGVRTFYADSVK | GEIAGTFDF, the assay gave 200 pM (6 of 6 replicates).
For GFDLNEYGIS | VIYADGMRTAYVDSVK | GNVAGTFDL, the assay gave 230 pM (6 of 6 replicates).
For GFDLNEYGIS | VIYADGMRTAYADKVK | GANAGTFDV, the assay gave 750 pM (6 of 6 replicates).
For GFDLNEYGIS | VIYADGMRTQYIDSVK | GNTAGTFDV, the assay gave 790 pM (5 of 6 replicates).
For GSILDEYGIS | VIYADGVRTAYIEDVK | GQSGVSVVN, the assay gave 120 nM (1 of 6 replicates).
For GFDLNEYGIS | VIYADGQRTAYADSVK | GKMAGTFDS, the assay gave 240 pM (6 of 6 replicates).
For GFDLNEYGIS | VIYADGMRTVYADSVK | GNTAGTFDI, the assay gave 250 pM (6 of 6 replicates).
For GFDLNEYGIS | VIYADGVRTAYVDSVK | GNNAGTFDI, the assay gave 850 pM (6 of 6 replicates).
For GFDLNEYGIS | VIYADGMRKAYADDVK | GSNAGTFDV, the assay gave 200 pM (6 of 6 replicates).
For GFNLDEYGVS | VIYADGNRTQYTEDVK | GTNGGAVDL, the assay gave nd (0 of 6 replicates).
For GFSIDEYGIS | VIYADGSRQVYQNKVK | GKGTGYATL, the assay gave 900 nM (1 of 6 replicates).
For GFDLDEYGIS | VIYADGSRTAYADSVK | GNVAGTFDV, the assay gave 330 pM (6 of 6 replicates).
For GFDLNEYGIS | VIYADGRRTQYIDSVK | GNVAGTFDQ, the assay gave 1.1 nM (6 of 6 replicates).
For GFDLEDYGIS | VIYADGKRTAYADSVK | GEAAGTFDL, the assay gave 330 pM (6 of 6 replicates).

For reference, 5 entries of the list once more:

CDR-H1,CDR-H2,CDR-H3,apparent Kd,detected
GSDLNEYGIS,VIYADGHRVSYAENVK,GINMGGIAI,nd,0/6
GYSLDDYGIS,VIYADGKRKSYAEDVK,GNVGGSFMD,4.0 µM,1/6
GFSIDEYGIS,VIYADGSRQVYQNKVK,GKGTGYATL,900 nM,1/6
GFDIDEYGIS,VIYADGMRTFYTDSVK,GEEAGTFDA,230 pM,6/6
GFDLKEYGIS,VIYADGRRTAYDNDVK,GQVLGIFLD,nd,0/6

The authors' rule: three or more of the six replicates give a measured affinity, fewer mean a poor binder. Nonspecific signal, from three strains lacking the peptide, appeared in 1% of pairings of all heavy chain designs, centred on 120 nM (5% of these signals below 7.0 nM); values are not corrected for it. The parent sequence was in this pool as ten entries: three were never detected, three once, and four in most replicates, with averages from 2.2 nM to 240 nM. Values of this round are not directly comparable with the first-round values of the same sequences.

Source: Li et al. 2023 (doi:10.1038/s41467-023-39022-2), MIT Lincoln Laboratory and A-Alpha Bio; data file from the FLAb repository.